Earlier results as cited in US20050202488A1, “Assay for therapies that inhibit expression of the cytosolic Cu/Zn superoxide dismutase (SOD1) gene” (The General Hospital Corporation, priority 2004, published 2005).

System: ALS patients
Conditions: cited from earlier work

Nc1nc2ccc(OC(F)(F)F)cc2s1 [Riluzole]
tolerability among patients: generally well tolerated
prolongation of tracheotomy-free survival (compared to placebo, clinical trials in America and Europe): about 15%
improvement in survival overall (on average): ~3 month
